Test: Biodistribution in mice after intravenous injection (organ activities by scintillation counter)
Conditions: i.v.

Row | Substance | injected dose in the intestines (60 minutes) | injected dose in the liver (60 minutes) | injected dose in the liver (30 minutes)
1 | technetium-99m chelate of 8-hydroxyquinoline [Example 8] | 20% | 40% | 
2 | technetium-99m chelate of N-(o-bromobenzyl) iminodiacetic acid [Example 13] |  |  | 40%
